# Source: PubChem
# This is a sample that favours compounds with a hit; in the whole collection about 16% have one here.
# DT40 TDP1 CPT – growth inhibition of DT40 Tdp1-/-;hTDP1 cells with camptothecin (screen for TDP1 inhibitors); chicken DT40 Tdp1-/-;hTDP1 cells + 20 nM CPT, ATP luminescence, 48 h; Potency, µM (titrated, usually from 46.2 µM), for inactives: at the top dose activity change, negative = growth inhibition, most hits filed as inhibitors; hit rate 12% among 420,000; further: potency means the concentration at half of the fitted maximal effect; on the % scale 0 is the no-effect control and ±100 the full control effect; nearly all actives have a fitted effect of over 55% in size
#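 Cell growth measured by CellTiter-Glo luminescence after a minimum 48 h, 37 C compound exposure with 20 nM CPT in Tdp1-knockout DT40 cells stably expressing hTDP1, seeded 400/well; qHTS titration format.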
# miR-21 reporter – miR-21 reporter, rising signal | AID 2288 | HeLa miR-21 FLuc reporter, luciferase, 48 h | 340,000 tested, under 10 active | Potency, µM (doses to about 38.3 µM), for inactives: at the top dose reporter change, positive = more light; active = well fitted rising curve with a large enough effect; inconclusive = small, poorly fitted or top-dose-only effect; inactive = no such curve, though single readings can be large or run the other way;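 note: % of control where 0% means no effect; miR-21 action dims this reporter so a rising signal means less miR-21 action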
#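 Compounds were titrated across several concentrations (up to approximately 40 uM) and incubated 48 hours with HeLa miR-21-FLuc reporter cells (miR-21 target sequence downstream of FLuc, endogenous miR-21). Readout was firefly luciferase luminescence after lytic detection reagent.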
# uPA generation – inhibitors of cell surface uPA generation | cell surface uPA generation assay, qHTS | Potency, µM (doses to about 38.3 µM), for inactives: at the highest dose activity change, negative = inhibition, hits mostly inhibitors | hit rate 0.31% among 330,000; active means well fitted inhibition curve with a large enough effect; inconclusive means small, poorly fitted or top-dose-only effect; inactive means no such curve, though single readings can be large or run the other way; tested in mouse RAW 264.7 cells; further: potency means the concentration at half of the fitted maximal effect; on the % scale 0 is the no-effect control and ±100 the full control effect; nearly all actives have a fitted effect of over 55% in size
# TDP1 inh – TDP1 (human) enzyme inhibition. recombinant TDP1, AlphaScreen DNA substrate cleavage. hit rate 0.28% among 350,000. AID 485290. Q9NUW8. Potency, µM (top dose mostly 130 µM), inactives show at the top dose activity change, negative = inhibition, usual class: inhibitors; further: potency means the concentration at half of the fitted maximal effect; on the % scale 0 is the no-effect control and ±100 the full control effect; nearly all actives have a fitted effect of over 40% in size
#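 AlphaScreen read-out: signal falls as enzyme removes the 3' tyrosine-FITC from a 5'-biotinylated DNA oligo (15 nM, 5 min, RT). Enzyme was E. coli-made recombinant Tdp1 at 1 nM, exposed to compound for 15 min beforehand; beads 10 ug/ml, 10 min.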
# TDP1 cell noCPT – qHTS for Inhibitors of human tyrosyl-DNA phosphodiesterase 1 (TDP1): qHTS in cells in absence of CPT. DT40 Tdp1-/- hTDP1 cells, no CPT, ATP luminescence, 48 h. Potency, µM (top dose mostly 46.2 µM), without a hit: top-dose activity change, negative = growth inhibition, most hits filed as inhibitors. hit rate 15% among 420,000; further: potency means the concentration at half of the fitted maximal effect; on the % scale 0 is the no-effect control and ±100 the full control effect; nearly all actives have a fitted effect of over 55% in size
#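 Growth kinetics read by CellTiter-Glo luminescence after ≥48 hr at 37 °C. Cells: DT40 Tdp1-/- stably carrying human TDP1, 400 per well, compound exposure in the absence of CPT (DMSO vehicle).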
# An asterisk follows results filed as active; ? = inconclusive; / = no result given; [ ] = another dose, or the depositor's remark. Unless noted, the call rests on the fitted dose curve; in most records, active means well fitted curve in the direction sought with a large enough effect; inconclusive means small, poorly fitted or top-dose-only effect, or another doubt; inactive means no such curve, though single readings can be large; an effect the other way counts as inactive or inconclusive.
SMILES,DT40 TDP1 CPT,miR-21 reporter,uPA generation,TDP1 inh,TDP1 cell noCPT
O=C(CN1CCc2ccccc2C1)Nc1cc(S(=O)(=O)N2CCOCC2)ccc1N1CCCC1,14.6µM*,9.1%,24.5%,11.0%,?
O=C(CN1CCc2ccccc2C1)Nc1cc(S(=O)(=O)N2CCOCC2)ccc1N1CCOCC1,9.2µM*,2.9%,-0.4%,8.2%,23.1µM*
CCOC(=O)c1c(C)c(-c2ccccc2)n(CC(=O)Nc2ccc(OCC)cc2)c1C,-2.8%,-0.4%,/,0.0%,-28.7%
CCCCN1CCC(COC(=O)c2cc(Cl)c(N)c3c2OCCO3)CC1,5.0%,/,-8.9%,11.3%[56.1 µM],-25.4%
O=C(c1cnc2ccc3ccccc3c2c1)c1cc(F)ccc1O,7.31µM*,-5.8%,-14.7%,/,?
OC[C@@H](O)C1OC2NC(=S)OC2C1O (stereo partly specified),7.8%,-0.9%,-1.2%,-2.6%,-7.3%
CSc1cccc(NC(=O)CCCn2c(=O)c3cccn3c3cccnc32)c1,?,-11.0%,6.6%,4.3%,20.6µM*
CC(C)Oc1ccc(CNC(=O)CCCn2c(=O)c3cccn3c3ccccc32)cc1,16.4µM*,3.4%,/,3.9%,23.1µM*
O=C(CCn1c(=O)c2cccn2c2cccnc21)NCc1ccc(Cl)cc1,-14.9%,-20.7%,/,-2.6%,?
CCc1ccc(CNC(=O)CCCn2c(=O)c3cccn3c3cccnc32)cc1,16.4µM*,-9.6%,-2.8%,2.6%,?
CC(C)Oc1ccc(CNC(=O)CCCn2c(=O)c3cccn3c3cccnc32)cc1,25.9µM*,8.6%,/,5.1%,16.4µM*
O=C(CCCN1C(=O)NC2(CCCC2)C1=O)NCc1ccccc1,-0.3%,/,2.5%,-0.4%[56.1 µM],1.1%
Nc1cc(=O)[nH]c(SCC(=O)Nc2cc(Cl)ccc2Cl)n1,-24.1%,-1.1%,-1.9%,6.8%,8.5%
CCOc1ccc(CCNC(=O)Cn2c(=O)c3cccn3c3cccnc32)cc1,?,-2.5%,-1.8%,-3.8%,1.1%
O=C(CCCn1c(=O)c2cccn2c2cccnc21)NCc1cccc(Br)c1,?,-5.4%,2.2%,5.2%,?
CCOc1cc(CNC(=O)CCCn2c(=O)c3cccn3c3cccnc32)cc(OCC)c1OCC,?,-22.4%,11.9%,-2.6%,23.1µM*
CC(C(=O)NCCc1ccc(Cl)cc1)n1c(=O)c2cccn2c2cccnc21 (stereo unspecified),?,-2.4%,7.5%,7.2%,18.4µM*
O=C(CCCn1c(=O)c2cccn2c2cccnc21)NCCc1ccc(Cl)cc1,20.6µM*,-1.2%,4.3%,2.4%,23.1µM*
CC(=O)Nc1ccc(NC(=O)c2ccc3sc([C@H]4C[C@H](O)[C@@H](CO)O4)nc3c2)cc1,-10.5%,/,/,/,-1.7%
CC1(C)CC(=O)N(c2cc(Cl)cc(Cl)c2)C(=O)C1,-8.8%,0.4%,4.7%,/,-4.9%
C(=NN=Cc1c[nH]c2ccccc12)c1c[nH]c2ccccc12,1.7%,/,/,/,?
Cc1[nH]c2ccccc2c1/C=C/c1ccc2ccccc2n1,?,/,/,/,-111.0%
Cc1[nH]c2ccccc2c1/C=C/c1c[nH]c2ccccc12,?,/,/,/,11.2µM*
Cc1[nH]c2ccccc2c1/C=C/c1cnc2ccccc2n1,?,/,/,/,12.6µM*
CCOc1ccccc1C(=O)N/N=C/c1cccc2cccnc12,?,6.7%,-6.7%,5.2%,?
COc1ccc(C(=O)N/N=C/c2cccnc2)cc1,1.3%,-28.3%,?,/,7.3%
CCOc1ccc(C(=O)N/N=C/c2cccc3cccnc23)cc1,10.3µM*,10.4%,-17.4%,11.3%,9.2µM*
CSCC[C@H](NC(=O)OC(C)(C)C)C(=O)N/N=C/c1cccc2cccnc12,25.9µM*,9.2%,-1.7%,2.6%,20.6µM*
COc1ccc2nc(/C=N/NC(=O)[C@H](CCSC)NC(=O)OC(C)(C)C)ccc2c1,7.1%,-12.5%,-4.2%,0.0%,2.5%
COc1ccc(C(=O)N/N=C/c2cccc3cccnc23)cc1,4.11µM*,-3.8%,-9.3%,10.3%,4.61µM*
COc1ccc(C(=O)N/N=C/c2cc3ccccc3[nH]c2=S)cc1,1.46µM*,0.8%,-2.0%,9.5%,1.46µM*
C/C(=N\NC(=O)c1cccc(C)c1)c1cccc(NC(=O)c2ccco2)c1,-24.2%,-31.3%,-1.2%,6.0%,-22.0%
Cc1ccccc1OCc1nnc2c3cnn(C)c3ncn12,-21.6%,-25.7%,0.7%,8.2%,-20.6%
Cc1cc(S(=O)(=O)c2ccc(Cl)cc2)nc(S(=O)(=O)c2ccc(Cl)cc2)c1C#N,0.651µM*,/,/,/,0.651µM*
O=c1c2ccccc2nc(-c2ccccc2)n1CCCn1ccnc1,3.8%,-13.5%,1.5%,4.4%,-17.9%
COc1cc(/C=N/NC(=O)c2ccc(CSc3nc4ccccc4[nH]3)cc2)cc(OC)c1OC,18.4µM*,12.1%,-6.8%,2.6%,13µM*
COc1cc(/C=N/NC(=O)c2ccc3nc[nH]c3c2)cc(OC)c1OC,2.7%,14.9%,-0.8%,2.5%,-2.3%
CCOc1ccc(OCCSc2nc3ccccc3[nH]2)cc1,16.4µM*,3.8%,-4.0%,3.6%,20.6µM*
c1ccc(CSc2nc3ccccc3[nH]2)cc1,-6.6%,-33.2%,-0.6%,0.0%,?
O=C(NCCCO)c1ccc(CSc2nc3ccccc3[nH]2)cc1,?,-26.1%,-2.4%,4.8%,18.4µM*

# Quoted at random: 7 entries already listed.
SMILES,DT40 TDP1 CPT,miR-21 reporter,uPA generation,TDP1 inh,TDP1 cell noCPT
CSCC[C@H](NC(=O)OC(C)(C)C)C(=O)N/N=C/c1cccc2cccnc12,25.9µM*,9.2%,-1.7%,2.6%,20.6µM*
O=C(NCCCO)c1ccc(CSc2nc3ccccc3[nH]2)cc1,?,-26.1%,-2.4%,4.8%,18.4µM*
COc1ccc2nc(/C=N/NC(=O)[C@H](CCSC)NC(=O)OC(C)(C)C)ccc2c1,7.1%,-12.5%,-4.2%,0.0%,2.5%
COc1ccc(C(=O)N/N=C/c2cc3ccccc3[nH]c2=S)cc1,1.46µM*,0.8%,-2.0%,9.5%,1.46µM*
CCOc1ccc(C(=O)N/N=C/c2cccc3cccnc23)cc1,10.3µM*,10.4%,-17.4%,11.3%,9.2µM*
Cc1cc(S(=O)(=O)c2ccc(Cl)cc2)nc(S(=O)(=O)c2ccc(Cl)cc2)c1C#N,0.651µM*,/,/,/,0.651µM*
CCOc1ccccc1C(=O)N/N=C/c1cccc2cccnc12,?,6.7%,-6.7%,5.2%,?

# Other structures follow.
SMILES,DT40 TDP1 CPT,miR-21 reporter,uPA generation,TDP1 inh,TDP1 cell noCPT
O=[N+]([O-])c1ccc(CSc2nc3ccccc3[nH]2)cc1,?,-16.8%,1.2%,2.6%,29.1µM*
O=C(NCCO)c1ccc(CSc2nc3ccccc3[nH]2)cc1,-24.9%,-40.8%,-2.7%,6.7%,?
COCc1c(C(=O)Nc2nc(C)cs2)oc2ccccc12,?,-21.4%,-17.5%,-8.9%,?
ClC(Cl)Cl,-20.8%,/,/,3.1%,-2.8%
O=C1CSC(c2cccnc2)N1Cc1ccc(Cl)cc1Cl (stereo unspecified),-16.6%,3.1%,-2.6%,-2.5%,-28.9%
CC(C)CCNC(=O)c1onc(CSc2nc3ccccc3[nH]2)c1C(=O)NCCC(C)C,?,3.4%,9.6%,/,16.4µM*
CCCOc1ccc(CSc2nc3ccccc3[nH]2)cc1,8.2µM*,-4.3%,?,-2.1%,8.2µM*
COCCNC(=O)c1onc(CSc2nc3ccccc3[nH]2)c1C(=O)NCCOC,-26.4%,3.5%,-2.1%,/,?
COc1ccccc1CNC(=O)C(=O)c1cn(CC(=O)N2CCOCC2)c2ccccc12,-8.8%,-14.0%,-0.9%,3.0%,18.9%
CC(=O)N1N=C(c2ccc(C)o2)CC1c1ccc(F)cc1 (stereo unspecified),-15.3%,-11.4%,0.3%,-0.6%,-17.8%
CN(C)n1cccc1/C=C(\C#N)S(=O)(=O)c1cccc(Cl)c1,-5.0%,-2.5%,0.6%,5.2%,-20.3%
